Laboratory results as given in PubChem BioAssay AID1508611 (The Scripps Research Institute Molecular Screening Center, 2020).
The entries are a selection whose mix differs from that of the whole data set. Calls of active or inactive are those of the source.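 How the source made its calls: active means mean percent activation in the counterscreen above 29.09%; inactive means the rest.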

Chains of the proteins cited; added tags and fusions are not shown.
UniProt Q8TDV5, whole entry: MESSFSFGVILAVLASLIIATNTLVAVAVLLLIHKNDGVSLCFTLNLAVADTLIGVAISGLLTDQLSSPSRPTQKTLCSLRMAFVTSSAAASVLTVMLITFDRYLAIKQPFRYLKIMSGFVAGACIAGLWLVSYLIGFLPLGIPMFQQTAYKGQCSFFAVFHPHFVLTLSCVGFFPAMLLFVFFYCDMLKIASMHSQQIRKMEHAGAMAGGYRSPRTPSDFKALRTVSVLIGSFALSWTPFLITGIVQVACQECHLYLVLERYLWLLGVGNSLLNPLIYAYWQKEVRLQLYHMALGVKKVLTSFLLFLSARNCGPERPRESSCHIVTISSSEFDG

These molecules were tested against Glucose-dependent insulinotropic receptor (Homo sapiens) (UniProt Q8TDV5) (assay: off-target GPR119 activation – cell-based, PathHunter beta-arrestin, luminescence, triplicate, counter-screen for GPR151 activator project (AID 1508611;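 further: counterscreen on off-target GPR119 to flag nonselective hits from the GPR151 activator screen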)). Details: GPR119 PathHunter beta-arrestin cells, 90 min, at 11.2 µM, stronger effect = higher value, 0 = compound-well median, 100 = enzyme-acceptor control.

| Compound | activation |
| --- | --- |
| CP(=O)(O)Oc1cccc(Cl)c1Cl | inactive: 7.09% |
| CP(=O)(Nc1ccccn1)Oc1ccc(Cl)cc1 (configuration not stated) | inactive: 6.14% |
